Source: the CheMixHub viscosity set

Key:
[1] = xn = mol fraction of the nth substance listed

CCC[N+](CCC)(CCC)CCC.[OH-] + CS(C)=O
viscosity [mPa·s], [1], 100 kPa
Conditions	298.15 K	303.15 K	308.15 K	313.15 K
x1 = 0.0197	2.25	2.07	1.93	1.84
x1 = 0.0509	2.61	2.45	2.34	2.25
x1 = 0.0807	2.94	2.78	2.72	2.64
x1 = 0.1151	3.27	3.12	3.1	3.03
x1 = 0.1466	3.58	3.43	3.44	3.38
x1 = 0.1786	3.88	3.74	3.76	3.74
x1 = 0.2648	4.58	4.45	4.52	4.5
x1 = 0.3564	5.18	5.1	5.14	5.15
x1 = 0.4034	5.45	5.36	5.41	5.41
x1 = 0.4872	5.84	5.76	5.79	5.77
x1 = 0.5638	6.11	6.02	6.05	6.02
x1 = 0.6341	6.27	6.2	6.2	6.16
x1 = 0.6779	6.34	6.27	6.25	6.2
x1 = 0.7332	6.37	6.34	6.29	6.21
x1 = 0.7945	6.38	6.34	6.27	6.19
x1 = 0.8432	6.36	6.28	6.22	6.13
x1 = 0.8902	6.32	6.24	6.14	6.04
x1 = 0.9672	6.17	6.1	5.99	5.81

CCC[N+](CCC)(CCC)CCC.[Br-] + OCCO
[1], 101 kPa
Conditions	viscosity [mPa·s]
294 K, x1 = 0.17	978
294.8 K, x1 = 0.2	882.9
302.8 K, x1 = 0.17	524.4
303.4 K, x1 = 0.2	561
304 K, x1 = 0.25	685.4

CCC[N+](CCC)(CCC)CCC.[OH-] + O
viscosity [mPa·s], [1], 101 kPa
Conditions	x1 = 0.00227	x1 = 0.00464	x1 = 0.009747	x1 = 0.01539	x1 = 0.02167	x1 = 0.02868	x1 = 0.03658
298.15 K	1.023	1.211	1.399	1.901	2.402	3.469	4.537
303.15 K	0.9005	1.062	1.224	1.634	2.043	2.825	3.607
313.15 K	0.7316	0.8475	0.9633	1.246	1.529	2.062	2.594
323.15 K	0.6056	0.6935	0.7819	0.9849	1.189	1.545	1.9

CCC[N+](CCC)(CCC)CCC.[OH-] + CC(=O)N(C)C
viscosity [mPa·s], [1], 101 kPa
Conditions	298.15 K	303.15 K	308.15 K	313.15 K
x1 = 0.0153	1.15	1.07	0.98	0.92
x1 = 0.0476	1.58	1.47	1.36	1.26
x1 = 0.0826	2.02	1.9	1.73	1.6
x1 = 0.1205	2.43	2.29	2.12	1.95
x1 = 0.1617	2.85	2.68	2.52	2.33
x1 = 0.1837	3.06	2.89	2.71	2.52
x1 = 0.2308	3.45	3.27	3.09	2.87
x1 = 0.3104	3.99	3.82	3.62	3.39
x1 = 0.403	4.46	4.28	4.09	3.87
x1 = 0.5122	4.84	4.68	4.48	4.24
x1 = 0.6429	5.15	4.99	4.81	4.58
x1 = 0.7453	5.35	5.2	5.03	4.79
x1 = 0.863	5.66	5.52	5.37	5.15

CCC[N+](CCC)(CCC)CCC.[OH-]
viscosity [mPa·s]
Conditions	298.15 K	303.15 K	308.15 K	313.15 K
100 kPa	6.1	6.01	5.88	5.66
101 kPa	6.1	6.01	5.88	5.66

CCC[N+](CCC)(CCC)CCC.[Br-] + OCC(O)CO
[1], 101 kPa
Conditions	viscosity [mPa·s]
294 K, x1 = 0.33	86.1
294.4 K, x1 = 0.25	55.5
296.8 K, x1 = 0.2	40.8
303.6 K, x1 = 0.25	41.2
303.8 K, x1 = 0.33	58.8
313.7 K, x1 = 0.33	35.5

CCC[N+](CCC)(CCC)CCC.[Br-] + OCCOCCOCCO
[1], 101 kPa
Conditions	viscosity [mPa·s]
296.2 K, x1 = 0.2	80.6
303.4 K, x1 = 0.2	61.7
303.6 K, x1 = 0.25	74.3
304 K, x1 = 0.29	78.3
313.3 K, x1 = 0.25	46.9
313.9 K, x1 = 0.29	49.1
314.1 K, x1 = 0.2	37.7
